Laboratory results from ChEMBL document CHEMBL4382216, “Asymmetric synthesis and biological evaluation of imidazole- and oxazole-containing synthetic lipoxin A4 mimetics (sLXms)” (Eur J Med Chem, 2019).

Tests used:
Format in all cases: cell-based
[1] = target: T1, N-formyl peptide receptor 2 (Homo sapiens) (UniProt P25090); assay: Agonist activity at ALX/FPR2 in human THP1 cells harboring NF-kB-Luc assessed as inhibition of LPS-induced NFkB signalling activation by measuring NF-kB activation level at 10^-12 M pretreated for 30 mins followed by LPS stimulation for 24 hrs by luciferase reporter gene assay; set-up: scale not given: the % may be the effect or the level left
T1 sequence (whole entry): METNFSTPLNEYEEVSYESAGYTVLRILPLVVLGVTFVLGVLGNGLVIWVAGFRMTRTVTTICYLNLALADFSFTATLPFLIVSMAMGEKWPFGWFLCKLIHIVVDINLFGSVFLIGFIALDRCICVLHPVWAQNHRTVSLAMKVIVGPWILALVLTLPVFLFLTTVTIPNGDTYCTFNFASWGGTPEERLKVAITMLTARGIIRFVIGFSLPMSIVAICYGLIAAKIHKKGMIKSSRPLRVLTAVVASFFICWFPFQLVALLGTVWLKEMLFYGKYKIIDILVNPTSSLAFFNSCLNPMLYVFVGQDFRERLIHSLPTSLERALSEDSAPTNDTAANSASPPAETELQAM

[2] = target: T1, N-formyl peptide receptor 2 (Homo sapiens); assay: Agonist activity at ALX/FPR2 in human THP1 cells harboring NF-kB-Luc assessed as inhibition of LPS-induced NFkB signalling activation by measuring IL-12p70 secretion at 10^-7 M pretreated for 30 mins followed by LPS stimulation for 24 hrs by electrochemiluminescence assay; set-up: scale not given: the % may be the effect or the level left
[3] = target: T1, N-formyl peptide receptor 2 (Homo sapiens); assay: Agonist activity at ALX/FPR2 in human THP1 cells harboring NF-kB-Luc assessed as inhibition of LPS-induced NFkB signalling activation by measuring IFNgamma secretion at 10^-7 M pretreated for 30 mins followed by LPS stimulation for 24 hrs by electrochemiluminescence assay; set-up: scale not given: the % may be the effect or the level left
[4] = target: T1, N-formyl peptide receptor 2 (Homo sapiens); assay: Agonist activity at ALX/FPR2 in human THP1 cells harboring NF-kB-Luc assessed as inhibition of LPS-induced NFkB signalling activation by measuring NF-kB activation level at 10^-6 M pretreated for 30 mins followed by LPS stimulation for 24 hrs by luciferase reporter gene assay; set-up: scale not given: the % may be the effect or the level left
[5] = target: T1, N-formyl peptide receptor 2 (Homo sapiens); assay: Agonist activity at ALX/FPR2 in human THP1 cells harboring NF-kB-Luc assessed as inhibition of LPS-induced NFkB signalling activation by measuring IFNgamma secretion at 10^-9 M pretreated for 30 mins followed by LPS stimulation for 24 hrs by electrochemiluminescence assay; set-up: scale not given: the % may be the effect or the level left
[6] = target: T1, N-formyl peptide receptor 2 (Homo sapiens); assay: Agonist activity at ALX/FPR2 in human THP1 cells harboring NF-kB-Luc assessed as inhibition of LPS-induced NFkB signalling activation by measuring NF-kB activation level at 10^-10 M pretreated for 30 mins followed by LPS stimulation for 24 hrs by luciferase reporter gene assay; set-up: scale not given: the % may be the effect or the level left
[7] = target: T1, N-formyl peptide receptor 2 (Homo sapiens); assay: Agonist activity at ALX/FPR2 in human THP1 cells harboring NF-kB-Luc assessed as inhibition of LPS-induced NFkB signalling activation by measuring TNFalpha secretion at 10^-9 M pretreated for 30 mins followed by LPS stimulation for 24 hrs by electrochemiluminescence assay; set-up: scale not given: the % may be the effect or the level left
[8] = target: T1, N-formyl peptide receptor 2 (Homo sapiens); assay: Agonist activity at ALX/FPR2 in human THP1 cells harboring NF-kB-Luc assessed as inhibition of LPS-induced NFkB signalling activation by measuring NF-kB activation level at 10^-7 M pretreated for 30 mins followed by LPS stimulation for 24 hrs by luciferase reporter gene assay; set-up: scale not given: the % may be the effect or the level left
[9] = target: T1, N-formyl peptide receptor 2 (Homo sapiens); assay: Agonist activity at ALX/FPR2 in human THP1 cells harboring NF-kB-Luc assessed as inhibition of LPS-induced NFkB signalling activation by measuring IL-6 secretion at 10^-7 M pretreated for 30 mins followed by LPS stimulation for 24 hrs by electrochemiluminescence assay; set-up: scale not given: the % may be the effect or the level left
[10] = target: T1, N-formyl peptide receptor 2 (Homo sapiens); assay: Agonist activity at ALX/FPR2 in human THP1 cells harboring NF-kB-Luc assessed as inhibition of LPS-induced NFkB signalling activation by measuring TNFalpha secretion at 10^-11 M pretreated for 30 mins followed by LPS stimulation for 24 hrs by electrochemiluminescence assay; set-up: scale not given: the % may be the effect or the level left
[11] = target: T1, N-formyl peptide receptor 2 (Homo sapiens); assay: Agonist activity at ALX/FPR2 in human THP1 cells harboring NF-kB-Luc assessed as inhibition of LPS-induced NFkB signalling activation by measuring TNFalpha secretion at 10^-7 M pretreated for 30 mins followed by LPS stimulation for 24 hrs by electrochemiluminescence assay; set-up: scale not given: the % may be the effect or the level left
Homo sapiens [12] = organism: Homo sapiens; assay: Activation of Luc-fused NFkB (unknown origin) expressed in non-stimulated human THP1 cells assessed as relative luminescence unit at 10^-8 M after 24 hrs by luciferase reporter gene assay (reference value: 100%)
[13] = target: T1, N-formyl peptide receptor 2 (Homo sapiens); assay: Agonist activity at ALX/FPR2 in human THP1 cells harboring NF-kB-Luc assessed as inhibition of LPS-induced NFkB signalling activation by measuring IL-12p70 secretion at 10^-9 M pretreated for 30 mins followed by LPS stimulation for 24 hrs by electrochemiluminescence assay; set-up: scale not given: the % may be the effect or the level left
[14] = target: T1, N-formyl peptide receptor 2 (Homo sapiens); assay: Agonist activity at ALX/FPR2 in human THP1 cells harboring NF-kB-Luc assessed as inhibition of LPS-induced NFkB signalling activation by measuring IL-1beta secretion at 10^-7 M pretreated for 30 mins followed by LPS stimulation for 24 hrs by electrochemiluminescence assay; set-up: scale not given: the % may be the effect or the level left
[15] = target: T1, N-formyl peptide receptor 2 (Homo sapiens); assay: Agonist activity at ALX/FPR2 in human THP1 cells harboring NF-kB-Luc assessed as inhibition of LPS-induced NFkB signalling activation by measuring NF-kB activation level at 10^-11 M pretreated for 30 mins followed by LPS stimulation for 24 hrs by luciferase reporter gene assay; set-up: scale not given: the % may be the effect or the level left
[16] = target: T1, N-formyl peptide receptor 2 (Homo sapiens); assay: Agonist activity at ALX/FPR2 in human THP1 cells harboring NF-kB-Luc assessed as inhibition of LPS-induced NFkB signalling activation by measuring IL-1beta secretion at 10^-9 M pretreated for 30 mins followed by LPS stimulation for 24 hrs by electrochemiluminescence assay; set-up: scale not given: the % may be the effect or the level left
[17] = target: T1, N-formyl peptide receptor 2 (Homo sapiens); assay: Agonist activity at ALX/FPR2 in human THP1 cells harboring NF-kB-Luc assessed as inhibition of LPS-induced NFkB signalling activation by measuring IL-6 secretion at 10^-9 M pretreated for 30 mins followed by LPS stimulation for 24 hrs by electrochemiluminescence assay; set-up: scale not given: the % may be the effect or the level left
[18] = target: T1, N-formyl peptide receptor 2 (Homo sapiens); assay: Agonist activity at ALX/FPR2 in human THP1 cells harboring NF-kB-Luc assessed as inhibition of LPS-induced NFkB signalling activation by measuring IL-1beta secretion at 10^-11 M pretreated for 30 mins followed by LPS stimulation for 24 hrs by electrochemiluminescence assay; set-up: scale not given: the % may be the effect or the level left
[19] = target: T1, N-formyl peptide receptor 2 (Homo sapiens); assay: Agonist activity at ALX/FPR2 in human THP1 cells harboring NF-kB-Luc assessed as inhibition of LPS-induced NFkB signalling activation by measuring IL-12p70 secretion at 10^-11 M pretreated for 30 mins followed by LPS stimulation for 24 hrs by electrochemiluminescence assay; set-up: scale not given: the % may be the effect or the level left
[20] = target: T1, N-formyl peptide receptor 2 (Homo sapiens); assay: Agonist activity at ALX/FPR2 in human THP1 cells harboring NF-kB-Luc assessed as inhibition of LPS-induced NFkB signalling activation by measuring NF-kB activation level at 10^-8 M pretreated for 30 mins followed by LPS stimulation for 24 hrs by luciferase reporter gene assay; set-up: scale not given: the % may be the effect or the level left
Homo sapiens [21] = organism: Homo sapiens; assay: Activation of Luc-fused NFkB (unknown origin) expressed in non-stimulated human THP1 cells assessed as relative luminescence unit at 10^-11 M after 24 hrs by luciferase reporter gene assay (reference value: 100%)
[22] = target: T1, N-formyl peptide receptor 2 (Homo sapiens); assay: Agonist activity at ALX/FPR2 in human THP1 cells harboring NF-kB-Luc assessed as inhibition of LPS-induced NFkB signalling activation by measuring NF-kB activation level at 10^-9 M pretreated for 30 mins followed by LPS stimulation for 24 hrs by luciferase reporter gene assay; set-up: scale not given: the % may be the effect or the level left
[23] = target: T1, N-formyl peptide receptor 2 (Homo sapiens); assay: Agonist activity at ALX/FPR2 in human THP1 cells harboring NF-kB-Luc assessed as inhibition of LPS-induced NFkB signalling activation by measuring IFNgamma secretion at 10^-11 M pretreated for 30 mins followed by LPS stimulation for 24 hrs by electrochemiluminescence assay; set-up: scale not given: the % may be the effect or the level left
[24] = target: T1, N-formyl peptide receptor 2 (Homo sapiens); assay: Agonist activity at ALX/FPR2 in human THP1 cells harboring NF-kB-Luc assessed as inhibition of LPS-induced NFkB signalling activation by measuring IL-6 secretion at 10^-11 M pretreated for 30 mins followed by LPS stimulation for 24 hrs by electrochemiluminescence assay; set-up: scale not given: the % may be the effect or the level left

## COC(=O)CCC[C@H](O)[C@H](O)/C=C/c1nc(C)n(C)c1[C@H](C)O
[1]
  Activity: 96.8%
[2]
  Activity: 290%
[3]
  Activity: 11.7%
[4]
  Activity: 82.2%
[5]
  Activity: 197%
[6]
  Activity: 99.4%
[7]
  Activity: 86.3%
[8]
  Activity: 87.9%
[9]
  Activity: 118%
[10]
  Activity: 82.2%
[11]
  Activity: 116%
Homo sapiens [12]
  Activity: 2.9%
[13]
  Activity: 214%
[14]
  Activity: 313%
[15]
  Activity: 100%
[16]
  Activity: 259%
[17]
  Activity: 110%
[18]
  Activity: 238%
[19]
  Activity: 191%
[20]
  Activity: 86.7%
Homo sapiens [21]
  Activity: 2.9%
[22]
  Activity: 100%
[23]
  Activity: 185%
[24]
  Activity: 95.1%
